Among the data in US7074798B2, “Xanthine derivative and DPPIV inhibitor” (Eisai Co., Ltd, priority 2002, dated 2006) are IC50 values, retold here.

Protein sequences, listed by entry. Tags and fused reporters are not part of them. Lines headed by an entry give the natural chain unless they say otherwise; changes in a name come on top.
UniProt P22411: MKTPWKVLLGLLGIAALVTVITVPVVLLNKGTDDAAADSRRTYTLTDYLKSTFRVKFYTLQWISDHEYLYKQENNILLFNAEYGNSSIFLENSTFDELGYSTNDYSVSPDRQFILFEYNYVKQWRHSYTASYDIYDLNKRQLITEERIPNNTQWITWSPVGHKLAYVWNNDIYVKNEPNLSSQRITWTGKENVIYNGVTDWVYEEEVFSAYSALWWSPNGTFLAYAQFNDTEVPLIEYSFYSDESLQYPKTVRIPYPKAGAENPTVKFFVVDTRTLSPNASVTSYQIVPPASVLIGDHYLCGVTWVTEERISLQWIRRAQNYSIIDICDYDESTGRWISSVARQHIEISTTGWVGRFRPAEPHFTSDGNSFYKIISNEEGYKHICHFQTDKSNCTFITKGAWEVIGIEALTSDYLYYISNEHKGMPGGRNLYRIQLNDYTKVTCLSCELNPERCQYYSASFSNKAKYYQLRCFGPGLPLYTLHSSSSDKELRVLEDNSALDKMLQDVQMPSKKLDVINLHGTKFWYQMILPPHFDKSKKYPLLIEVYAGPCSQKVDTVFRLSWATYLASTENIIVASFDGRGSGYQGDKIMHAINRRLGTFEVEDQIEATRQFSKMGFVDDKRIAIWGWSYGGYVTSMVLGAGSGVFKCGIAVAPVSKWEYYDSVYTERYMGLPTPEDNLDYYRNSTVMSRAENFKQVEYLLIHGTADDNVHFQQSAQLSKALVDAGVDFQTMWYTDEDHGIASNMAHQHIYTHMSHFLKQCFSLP

The target in the assay is T1, DPP-IV obtained from swine kidney (Sus scrofa, UniProt P22411).
T1 construct: DPP-IV obtained from swine kidney; from tissue; host or cells: swine kidney
The assay can be described thus: Determination of the inhibition action of DPPIV. The assay is classed as biochemical. As to the method: DPP-IV obtained from swine kidney was dissolved in reaction buffer (50 mM Tris-HCl pH 7.4, 0.1% BSA) at a concentration of 10 mU/mL, and 110 μl of the solution was added. Then, medicament (15 μl) was added thereto, and the mixture was incubated at room temperature for 20 minutes. Gly-Pro-p-nitroanilide (25 μl, final concentration: 0.33 mM) dissolved to 2 mM was added to the mixture to start enzymatic reaction. The reaction time was 20 minutes, and 1N phosphoric acid solution (25 μl) was added to the mixture to quench the reaction.

For orientation: IC50 means the concentration at which inhibition is half-maximal. A high value points to a need for much substance. With `N#Cc1ccc(NCCNCC(=O)N2CCC[C@H]2C#N)nc1` [Control compound 2], the IC50 came out at 226 nM.
